The text below walks through data of patent US11419865B2, “Method for inducing a sustained immune response” (Cytocom Inc., priority 2016, dated 2022).

The test system of the experiment is Hashimoto's patients. Kind of experiment: Hashimoto's thyroiditis case reports. Conditions: titrated to 4.5 mg; from 300.

Consider `O=C1CC[C@@]2(O)[C@H]3Cc4ccc(O)c5c4[C@@]2(CCN3CC2CC2)[C@H]1O5` [Immediate release naltrexone, naltrexone], for which the “B12, person, Hashimoto's” value turned out to be 1785.
